For the assay, the target named is Kappa-type opioid receptor (Cavia porcellus, UniProt P41144). Nature of the assay: Binding affinity towards kappa opioid receptor by displacement of [3H]EKC in guinea pig cortical tissue. The method, boiled down:
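Radioligand displacement. Kappa: [3H]EKC, guinea pig cortex, with fentanyl and DADL added to block mu/delta binding. Delta: [3H]DADL, rat brain homogenate.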
For orientation: Loss of bound radioactivity is the signal in a displacement assay; it reports binding, not function.

Sequences of proteins named here, by UniProt entry; tags and fusion partners are left off. A change or cut given only in a name is not applied to a line headed by its entry.
UniProt P41144: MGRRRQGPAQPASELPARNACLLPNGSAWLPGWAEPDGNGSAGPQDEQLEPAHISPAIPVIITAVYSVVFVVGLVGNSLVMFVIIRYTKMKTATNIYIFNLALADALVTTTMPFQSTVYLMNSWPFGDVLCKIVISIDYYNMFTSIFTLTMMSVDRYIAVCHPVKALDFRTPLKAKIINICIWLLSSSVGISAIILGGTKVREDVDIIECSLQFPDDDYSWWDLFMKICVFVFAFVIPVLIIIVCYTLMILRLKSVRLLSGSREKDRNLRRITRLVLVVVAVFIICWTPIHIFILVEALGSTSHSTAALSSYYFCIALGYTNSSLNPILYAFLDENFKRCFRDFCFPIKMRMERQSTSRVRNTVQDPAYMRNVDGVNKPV

For `CCCCCCN1CC[C@@](C)(c2cccc(O)c2)[C@@H](C)C1` (stereo in doubt; 37), the Ki (as a rule, a dissociation constant, usually derived from enzyme kinetics or from competition with a known ligand) was 5.2 nM.
Under `CCCCCCN1CC[C@](C)(c2cccc(O)c2)[C@H](C)C1` stands 5.79 nM.

Source of the values: ChEMBL document CHEMBL1127053, “3,4-Dimethyl-4-(3-hydroxyphenyl)piperidines: opioid antagonists with potent anorectant activity” (J Med Chem, 1993).
